Assay results taken from article PMC11859074, “Exploring the Anticancer Potential of NO-Donor Oxadiazole Assemblies Against Malignant Pleural Mesothelioma” (Pharmaceutics, 2025).

Test: NO release assay (Griess assay, phosphate buffer with L-cysteine)

N#Cc1c(C(N)=NO)no[n+]1[O-]
NO Released (%) 1 h (% NO2− (μmol/μmol) relative to initial concentration (100 μM), L-cysteine, phosphate buffer pH 7.4, 37 °C, 1 h): 70 ± 5%
NO Released (%) 24 h (% NO2− (μmol/μmol) relative to initial concentration (100 μM), L-cysteine, phosphate buffer pH 7.4, 24 h): 81 ± 4%
NO Released (%) 48 h (% NO2− (μmol/μmol) relative to initial concentration (100 μM), L-cysteine, phosphate buffer pH 7.4, 48 h): 84 ± 10%
Fold Change 24 h/1 h (ratio of NO released at 24 h to 1 h): 1.2
Fold Change 48 h/1 h (ratio of NO released at 48 h to 1 h): 1.2
Fold Change 48 h/24 h (ratio of NO released at 48 h to 24 h): 1.0
